## Measured affinities in a library of Ab-91 heavy chain variants

Data: MIT Lincoln Laboratory AlphaSeq set, Engelhart et al. 2022, doi:10.1038/s41597-022-01779-4, as distributed in FLAb.

Target peptide (SARS-CoV-2 spike, HR2 region): PDVDLGDISGINAS

Parent: Ab-91, a human scFv built as VL, a (GGGGS)3 linker, VH. Only the CDRs of the heavy chain vary.
VL: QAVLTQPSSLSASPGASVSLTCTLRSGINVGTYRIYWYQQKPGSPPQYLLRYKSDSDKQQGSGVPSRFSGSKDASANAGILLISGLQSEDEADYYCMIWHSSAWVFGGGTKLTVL
VH: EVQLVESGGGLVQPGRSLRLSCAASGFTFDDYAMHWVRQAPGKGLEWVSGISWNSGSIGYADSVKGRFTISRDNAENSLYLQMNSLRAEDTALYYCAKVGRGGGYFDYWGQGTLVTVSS

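Phage display of a naive human antibody library on the peptide gave the parent. The library (AAYL51) carries one to three amino acid substitutions per variant, with no insertions or deletions. The assay is AlphaSeq: two haploid yeast populations carry antibody and antigen on their surface. After mating in shaken culture at 30 °C for 16 h, diploids were selected and their barcode pairs sequenced. Each replicate has its own calibration line, from reference interactions of the BCL2 family. There are three technical replicates.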

Positions count from residue 1 of the parent VH; W53H puts H in place of W.
All variants listed here change W53 of the VH, counted from its first residue.
Each Kd is an estimate from the mating assay, the geometric mean of the replicates in which the pair was seen; lower is stronger.
Where no diploid with the target was found in any replicate, the entry reads "no signal": below detection, most likely a poor binder, though not proof of it.
The list is sorted by this average, lowest first, undetected variants last.

For W53H+S57Q+I58H, the assay gave 2.1 nM (3 of 3 replicates; controls 9 of 9). Variant M34F+W53Y gave 6.7 nM (3 of 3 replicates; controls 2 of 9). Variant M34W+W53A+G104N gave 7.2 nM (3 of 3 replicates; controls 3 of 9). With D30W+W53F the result was 23 nM (3 of 3 replicates; controls 2 of 9). For W53V+S57N, the assay gave 50 nM (3 of 3 replicates; controls 4 of 9).

For W53L+S55A+G56N, the assay gave 390 nM (3 of 3 replicates; controls 6 of 9). Variant G26K+T28I+W53G gave 390 nM (3 of 3 replicates; controls 3 of 9). Variant W53K+S63D+G102L gave 740 nM (3 of 3 replicates; controls 6 of 9). With G26N+W53I the result was 870 nM (2 of 3 replicates; controls 0 of 9). With I51L+W53E+Y105C the result was 2.9 µM (1 of 3 replicates; controls 0 of 9).

Variant W53S+A61M+V99F showed 3.3 µM (2 of 3 replicates; controls 3 of 9). Variant D30H+W53C+R101I gave 10 µM (2 of 3 replicates; controls 2 of 9). Variant I51L+W53D+N54Y showed 19 µM (1 of 3 replicates; controls 1 of 9). Variant M34L+W53E showed 22 µM (1 of 3 replicates; controls 2 of 9). With W53E+Y60W+G104D the result was 25 µM (1 of 3 replicates; controls 3 of 9).

Variant A33L+W53K+G103V showed 41 µM (3 of 3 replicates; controls 6 of 9). Variant H35V+W53P+R101P gave 57 µM (1 of 3 replicates; controls 2 of 9). With W53G+G103S the result was 85 µM (2 of 3 replicates; controls 2 of 9). Variant A33H+W53Y+G59E gave 93 µM (3 of 3 replicates; controls 4 of 9). Variant D30Q+W53N+Y60P gave 94 µM (3 of 3 replicates; controls 6 of 9).

Variant F29Q+Y32R+W53F gave 110 µM (3 of 3 replicates; controls 7 of 9). Variant W53T+V99I+G103H gave 130 µM (1 of 3 replicates; controls 1 of 9). With F27M+W53R+G102M the result was 140 µM (3 of 3 replicates; controls 7 of 9). With G50I+W53H+S63H the result was 150 µM (3 of 3 replicates; controls 3 of 9). Variant W53Q+A61P+Y108C showed 230 µM (1 of 3 replicates; controls 1 of 9).

Variant W53V+I58W+G103N gave 250 µM (1 of 3 replicates; controls 4 of 9). Variant G26W+W53V+D62A gave 380 µM (1 of 3 replicates; controls 2 of 9). Variant W53P+V64A+G104Y gave 400 µM (1 of 3 replicates; controls 2 of 9). Variant W53S+K65P gave 650 µM (2 of 3 replicates; controls 4 of 9). Variant W53P+G100H gave no signal (0 of 3 replicates; controls 0 of 9).

With W53V+A61T+F106H the result was no signal (0 of 3 replicates; controls 0 of 9). With W53I+G102W+Y108I the result was no signal (0 of 3 replicates; controls 0 of 9). For W53A+G59N+D62M, the assay gave no signal (0 of 3 replicates; controls 1 of 9). For W53M+S63K+R101V, the assay gave no signal (0 of 3 replicates; controls 0 of 9). Variant T28D+S52A+W53E showed no signal (0 of 3 replicates; controls 0 of 9).

With W53D+G59C+G100H the result was no signal (0 of 3 replicates; controls 3 of 9). With I51N+W53A+G104V the result was no signal (0 of 3 replicates; controls 4 of 9). Variant G26R+F29Y+W53T showed no signal (0 of 3 replicates; controls 0 of 9). Variant F29T+W53F+G59I showed no signal (0 of 3 replicates; controls 0 of 9). Variant W53Y+G59L+D62F gave no signal (0 of 3 replicates; controls 2 of 9).

Variant G50S+W53L+G103T gave no signal (0 of 3 replicates; controls 1 of 9). Variant F27Q+W53G+Y60S gave no signal (0 of 3 replicates; controls 0 of 9). Variant W53K+N54I+Y105E gave no signal (0 of 3 replicates; controls 0 of 9). With F27E+G50V+W53L the result was no signal (0 of 3 replicates; controls 4 of 9). With A33C+I51P+W53M the result was no signal (0 of 3 replicates; controls 0 of 9).

For W53E+Y60E+G104N, the assay gave no signal (0 of 3 replicates; controls 2 of 9).

For reference, 4 entries of the list once more:

changes	Kd	detected	control signals
T28D+S52A+W53E	no signal	0 of 3	0 of 9
W53G+G103S	85 µM	2 of 3	2 of 9
M34L+W53E	22 µM	1 of 3	2 of 9
W53E+Y60E+G104N	no signal	0 of 3	2 of 9

Nonspecific signal, from three strains lacking the peptide, appeared in 21% of pairings of library AAYL51, centred on 34 µM (5% of these signals below 1.8 µM); values are not corrected for it. The control count says in how many pairings with the empty strains this scFv gave a signal.
For reference, the parent read 72 nM as the reference entry and 7.5 nM as a member of this library.